Where two headings read alike, the source gives them in different places.
Biological target: BRAF^V600E protein (Homo sapiens, UniProt P15056, V600E)
Assay: HiBiT cellular BRAF V600E degradation assay
Type: cell-based
Settings: for DC50: read-out: HiBit 24 h DC50; for Emax: read-out: HiBit 24 h Emax
Text: DMEM no-phenol red medium supplemented with L-glutamine was purchased from (Corning). Fetal bovine serum (FBS) was purchased from Gibco (Grand Island, NY, USA). Nano-Glo® HiBiT Lytic Assay Buffer & Reagents were purchased from Promega (Madison, WI, USA). A375 (harboring BRAF homozygous V600E mutation) was purchased from ATCC. […] Cell culture flasks and 384-well black flat-bottom polystyrene TC-treated microplates were acquired from Corning (Corning, NY, USA).
HiBiT Cellular BRAFv^600E Degradation Assay
Prior to the assay, the A375.10 cell line is maintained in DMEM no-phenol red medium supplemented with 10% fetal bovine serum (FBS). Following compound treatment, BRAF^V600E degradation was determined based on quantification of HiBiT luminescence signal by lysing the cells followed by addition of Nano-Glo® HiBiT Lytic Assay Reagents. The luminescence signal detected correlates with the total BRAF^V600E protein level in cells. Briefly, test compounds were added to the 384-well plate from a top concentration of 10 μM with 11 half log dilutions of compound, plated in duplicate. Then, 30 uL of a suspension of A375.10 cell lines was dispensed into columns 1-24 of the 384-well plates at a cell density of 7500 cells per well. The plates were kept at 37° C. with 5% CO2 for the duration of the assay (6 or 24 hr). After the desired incubation time with compound, 30 uL of Nano-Glo® HiBiT Lytic Buffer containing LgBiT protein (diluted 1:100) and luminescence substrate (diluted 1:50) were added to the cells in columns 1-23 of the assay plate. The plate was the incubated for 30 min on the bench at room temperature. Finally, HiBiT luminescence signal was acquired on EnVision™ Multilabel Reader (PerkinElmer, Santa Clara, CA, USA).
Quantification of luminescence responses measured in the presence of compound were normalized to a high signal/no degradation control (untreated cells+lytic detection reagent) and a low signal/full degradation control (untreated cells, no lytic detection reagent). Data were analyzed with a 4-parameter logistic fit to generate sigmoidal dose-response curves. The DC50 is the concentration of compound at which exactly 50% of the total cellular BRAF^V600E has been degraded. The Emax, or maximum effect of each compound, represents the amount of residual protein remaining in the cell following compound treatment.

Protein sequences, listed by entry. Tags and fused reporters are not part of them.
UniProt P15056, whole entry V600E: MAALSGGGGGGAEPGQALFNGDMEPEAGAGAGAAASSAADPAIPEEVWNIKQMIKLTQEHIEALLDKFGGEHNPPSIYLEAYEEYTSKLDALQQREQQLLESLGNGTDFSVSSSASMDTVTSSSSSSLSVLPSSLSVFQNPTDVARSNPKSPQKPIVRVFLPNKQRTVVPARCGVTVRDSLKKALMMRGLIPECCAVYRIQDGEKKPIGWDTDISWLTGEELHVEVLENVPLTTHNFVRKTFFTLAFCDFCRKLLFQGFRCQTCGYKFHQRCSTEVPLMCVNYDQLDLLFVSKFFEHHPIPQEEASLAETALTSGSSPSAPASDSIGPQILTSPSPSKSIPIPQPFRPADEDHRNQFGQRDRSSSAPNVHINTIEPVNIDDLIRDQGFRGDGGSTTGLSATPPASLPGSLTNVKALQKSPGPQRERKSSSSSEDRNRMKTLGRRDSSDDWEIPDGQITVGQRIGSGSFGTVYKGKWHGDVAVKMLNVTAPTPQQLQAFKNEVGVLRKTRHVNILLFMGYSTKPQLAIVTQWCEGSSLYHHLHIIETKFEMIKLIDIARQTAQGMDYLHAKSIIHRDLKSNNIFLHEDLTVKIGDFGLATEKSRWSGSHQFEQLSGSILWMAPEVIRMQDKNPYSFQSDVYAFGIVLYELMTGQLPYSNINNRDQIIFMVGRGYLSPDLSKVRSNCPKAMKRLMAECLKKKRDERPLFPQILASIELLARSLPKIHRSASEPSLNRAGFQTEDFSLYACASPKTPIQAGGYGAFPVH

Structure (SMILES)	DC50 [nM]	Emax [%]	DC50 (A375.10 cells (HiBiT tag knocked in at N-terminal of BRAF V600E), 24 h incubation, concentration at which 50% of total cellular BRAF V600E is degraded) [nM]
CCN(C)S(=O)(=O)Nc1ccc(F)c(C(=O)c2c[nH]c3ncc(-c4cnc(N5CCN(C(=O)C(F)(F)C6CCN(c7ccc(NC8CCC(=O)NC8=O)cc7)CC6)CC5)nc4)cc23)c1F (centres unmarked) [Example 60, 5-[2-[4-[2-[1-[4-[(2,6-dioxo-3-piperidyl)amino]phenyl]-4-piperidyl]-2,2-difluoro-acetyl]piperazin-1-yl]pyrimidin-5-yl]-3-[3-[[ethyl(methyl)sulfamoyl]amino]-2,6-difluoro-benzoyl]-1H-pyrrolo[2,3-b]pyridine]	16.6	16	–
CCN(C)S(=O)(=O)Nc1ccc(F)c(C(=O)c2c[nH]c3ncc(-c4cnc(N5CCN(C(=O)NC6CCN(c7ccc(NC8CCC(=O)NC8=O)cc7)CC6)CC5)nc4)cc23)c1F (centres unmarked) [Example 139, N-[1-[4-[(2,6-dioxo-3-piperidyl)amino]phenyl]-4-piperidyl]-4-[5-[3-[3-[[ethyl(methyl)sulfamoyl]amino]-2,6-difluoro-benzoyl]-1H-pyrrolo[2,3-b]pyridin-5-yl]pyrimidin-2-yl]piperazine-1-carboxamide]	6.89	9.49	–
CCN(C)S(=O)(=O)Nc1ccc(F)c(C(=O)c2c[nH]c3ncc(-c4ccc(N5CCN(C(=O)CC6(O)CCN(c7ccc(NC8CCC(=O)NC8=O)c(F)c7)CC6)CC5)nc4)cc23)c1F (centres unmarked) [Example 183, 5-[6-[4-[2-[1-[4-[(2,6-dioxo-3-piperidyl)amino]-3-fluoro-phenyl]-4-hydroxy-4-piperidyl]acetyl]piperazin-1-yl]-3-pyridyl]-3-[3-[[ethyl(methyl)sulfamoyl]amino]-2,6-difluoro-benzoyl]-1H-pyrrolo[2,3-b]pyridine]	–	8.35	1.94
CCN(C)S(=O)(=O)Nc1ccc(F)c(C(=O)c2c[nH]c3ncc(-c4ccc(N5CCN(C(=O)CC6(O)CCN(c7ccc(NC8CCC(=O)NC8=O)cc7F)CC6)CC5)c(C(F)F)c4)cc23)c1F (centres unmarked) [Example 200, 5-[3-(difluoromethyl)-4-[4-[2-[1-[4-[(2,6-dioxo-3-piperidyl)amino]-2-fluoro-phenyl]-4-hydroxy-4-piperidyl]acetyl]piperazin-1-yl]phenyl]-3-[3-[[ethyl(methyl)sulfamoyl]amino]-2,6-difluoro-benzoyl]-1H-pyrrolo[2,3-b]pyridine]	5.38	6.13	–
CCN(C)S(=O)(=O)Nc1ccc(F)c(C(=O)c2c[nH]c3ncc(-c4cnc(N5CCN(CCC6(O)CCC(c7ccc(NC8CCC(=O)NC8=O)cc7)CC6)CC5)nc4)cc23)c1F (centres unmarked) [Example 145, 5-[2-[4-[2-[4-[4-[(2,6-dioxo-3-piperidyl)amino]phenyl]-1-hydroxy-cyclohexyl]ethyl]piperazin-1-yl]pyrimidin-5-yl]-3-[3-[[ethyl(methyl)sulfamoyl]amino]-2,6-difluoro-benzoyl]-1H-pyrrolo[2,3-b]pyridine]	18.9	29.5	–
CCN(C)S(=O)(=O)Nc1ccc(F)c(C(=O)c2c[nH]c3ncc(-c4cnc(N5CCN(C(=O)C[C@]6(O)CC[C@@H](c7ccc(NC8CCC(=O)NC8=O)cc7)CC6)CC5)nc4)cc23)c1F (some centres unmarked) [Example 142, 5-[2-[4-[2-[4-[4-[(2,6-dioxo-3-piperidyl)amino]phenyl]-1-hydroxy-cyclohexyl]acetyl]piperazin-1-yl]pyrimidin-5-yl]-3-[3-[[ethyl(methyl)sulfamoyl]amino]-2,6-difluoro-benzoyl]-1H-pyrrolo[2,3-b]pyridine]	6.94	11.7	–
CCN(C)S(=O)(=O)Nc1ccc(F)c(C(=O)c2c[nH]c3ncc(-c4cnc(N5CCC(N(C)C(=O)C6CCN(c7ccc(NC8CCC(=O)NC8=O)cc7F)CC6)CC5)nc4)cc23)c1F (centres unmarked) [Example 135, 1-[4-[(2,6-dioxo-3-piperidyl)amino]-2-fluoro-phenyl]-N-[1-[5-[3-[3-[[ethyl(methyl)sulfamoyl]amino]-2,6-difluoro-benzoyl]-1H-pyrrolo[2,3-b]pyridin-5-yl]pyrimidin-2-yl]-4-piperidyl]-N-methyl-piperidine-4-carboxamide]	3.94	10.2	–
